Source: published antibiotic growth screens (doi:10.1038/s41589-023-01349-8)
The list shows a part of the results.

tested on: A. baumannii ATCC 17978; test: relative growth (fraction of control); higher = less inhibition; details: 50 µM

| Compound | relative growth |
| --- | --- |
| C[C@H](CO)N1C[C@H](C)[C@@H](CN(C)Cc2ccc3c(c2)OCO3)OCCCC[C@H](C)Oc2ccc(NS(=O)(=O)c3cccs3)cc2C1=O | 1 |
| O=C(C[C@@H]1C=C[C@H](NC(=O)CN2CCOCC2)[C@H](CO)O1)NCCc1ccncc1 | 1.06 |
| COc1ccccc1-c1ccc2c(c1)O[C@@H](CN(C)S(=O)(=O)c1ccccc1)[C@H](C)CN([C@H](C)CO)S2(=O)=O | 1.06 |
| COC(=O)[C@H]1c2cc3c(c(O)c2[C@@H](O[C@@H]2O[C@H](C)[C@H](OC)[C@](C)(OC)[C@@H]2OC)C[C@@]1(C)O)C(=O)c1c(O)cc2c(c1C3=O)O[C@H]1O[C@@]2(C)[C@@H](O)[C@H](N(C)C)[C@@H]1O | 1.05 |
| C[C@H](CO)N1C[C@H](C)[C@H](CN(C)C(=O)Cc2ccncc2)Oc2cc(C3=CCCC3)ccc2S1(=O)=O | 0.86 |
| CCc1nc2ccccc2nc1CC | 0.953 |
| Nc1ccccc1C(=O)NCCN1CCNC1=O | 1.03 |
| O=C(C[C@H]1C=C[C@H](NS(=O)(=O)c2ccc(F)cc2)[C@H](CO)O1)NCCN1CCCCC1 | 0.924 |
| COc1ccc(CNc2nc(N3CCC[C@H]3CO)ncc2C(=O)NCc2ncccn2)cc1Cl | 1.1 |
| CCNc1nc(SCC(N)=O)nc(N2CCOCC2)n1 | 1.01 |
| COc1ccc(S(=O)(=O)N2C[C@H](O)COC[C@H]3O[C@H](CC(=O)NCc4ccc(Cl)c(Cl)c4)CC[C@@H]32)cc1 | 0.979 |
| C[C@@H]1CN([C@H](C)CO)S(=O)(=O)c2ccc(-c3ccncc3)cc2O[C@H]1CN(C)C(=O)c1ccc2c(c1)OCO2 | 0.97 |
| COCCNC(=O)C[C@@H]1CC[C@@H](NS(=O)(=O)c2ccc(C)cc2)[C@H](CO)O1 | 0.95 |
| CCOC(=O)CSc1nc(=O)cc(C)[nH]1 | 0.952 |
| Cc1cc(C)n(C)c(=O)c1C(=O)O | 0.903 |
| OC[C@@H](O)CN1CCN(c2ccccc2)CC1 | 0.898 |
| C[C@H]1CN([C@@H](C)CO)C(=O)c2cc(C#Cc3ccccc3F)cnc2O[C@H]1CN(C)S(=O)(=O)c1ccccc1 | 0.96 |
| C[C@@H](O)C#Cc1ccc2c(c1)O[C@@H](CN(C)C(=O)Cc1ccccn1)[C@@H](C)CN([C@@H](C)CO)S2(=O)=O | 0.983 |
| Cc1ccc(S(=O)(=O)N2C[C@H](O)COC[C@H]3O[C@@H](CC(=O)NCCN4CCCCC4)CC[C@@H]32)cc1 | 1.02 |
| Cc1ccc(S[C@]2(C(=O)NCCCN(C)C)CC(=O)N(Cc3ccccc3C(F)(F)F)[C@@H]2c2ccc(CO)cc2I)cc1 | 0.875 |
| NNC(=O)c1ccncc1 | 0.885 |
| O=C(C[C@@H]1CC[C@@H](NC(=O)CN2CCOCC2)[C@H](CO)O1)NCCc1ccncc1 | 1.01 |

| Compound | relative growth |
| --- | --- |
| O=C(Nc1ccc2c(c1)[C@H]1C[C@H](CC(=O)N3CCc4ccccc4C3)O[C@@H](CO)[C@H]1O2)C1CCOCC1 | 1.01 |
| NS(=O)(=O)Cc1ccccc1F | 0.891 |
| O=C(NC1CC1)c1n[nH]c(=O)c2ccccc12 | 1.08 |
| NCCc1c(C(=O)O)[nH]c2ccc(Br)cc12 | 0.922 |
| O=C(/C=N/O)Nc1ccccc1C(=O)O | 0.906 |
| CC1(C)CC2C1CCC1(C)OC1CCC2(C)O (stereo not drawn) | 1.05 |
| COc1ccc([C@H]([C@H](Cc2ccccc2)OC(C)=O)N(C/C=C/[C@@H](OC(C)=O)c2ccccc2)[C@@H](Cc2ccccc2)C(OC)OC)cc1 | 1.27 |
| CC1=CCc2c(cc3oc(C)cc(=O)c3c2O)OC1 | 0.972 |
| N#CC1C(=O)NC(=O)N=C1Nc1ccccc1 (stereo not drawn) | 1.09 |
| COc1ccc([C@@H]([C@H](Cc2ccccc2)OC(C)=O)N2C[C@H](CC(=O)N(C)C)[C@@H]3C(=NO[C@H]3c3ccccc3)[C@@H]2Cc2ccccc2)cc1 | 1.06 |
| Nc1ncn(C[C@@H](O)CO)c2nc(Br)nc1-2 | 0.94 |
| O=C(CN1CCOCC1)NCC[C@H]1CC[C@@H](NC(=O)Cc2ccccn2)[C@H](CO)O1 | 1.15 |
| COc1ccc(NC(=O)N(C)C[C@H]2Oc3ncc(C#CCN(C)C)cc3C(=O)N([C@@H](C)CO)C[C@H]2C)cc1 | 1.09 |
| Cl.N=C(N)NCCCC(N)C(=O)O (stereo not drawn) | 1.07 |
| CCN(CC)CCNC(=O)c1ccc(N)cc1.Cl | 1.22 |
| C=CCOC(=O)[C@@H]1[C@H]2C(=O)O[C@H](c3ccccc3)[C@H](c3ccccc3)N2[C@H](c2ccc(OCCOC(=O)[C@@H]3C[C@@H]4C(=O)N[C@@H](Cc5ccccc5)C(=O)N4[C@@H]3c3ccc(O)cc3)cc2)[C@@]12C(=O)Nc1ccccc12 | 0.962 |
| COc1nn(C)cc1C(=O)NC1=NCCS1 | 0.808 |
| CC(C)NC(=O)NCC[C@H]1CC[C@H](NC(=O)CN(C)C)[C@H](CO)O1 | 1.04 |
| Cc1ccc(CNS(=O)(=O)N(C)C)cc1 | 0.912 |
| CO[C@H](CN(C)C(=O)c1ccc2c(c1)OCO2)[C@@H](C)CN([C@@H](C)CO)S(=O)(=O)c1ccc(C)cc1 | 1.19 |
| O=C(C[C@H]1CC[C@@H]2[C@H](COC[C@@H](O)CN2C(=O)c2ccccc2F)O1)N1CCN(c2ccccc2)CC1 | 0.78 |
| Cc1ccccc1-n1cc[nH]c1=S | 0.989 |

| Compound | relative growth |
| --- | --- |
| O=C(C[C@H]1CC[C@H](NC(=O)CN2CCOCC2)[C@@H](CO)O1)NCCc1ccncc1 | 1.02 |
| O=C(O)c1cccnc1 | 1.02 |
| NC(=O)NCC#Cc1ccc2c(c1)[C@]1(C(=O)N2)[C@H](C(=O)Nc2nc3ccccc3s2)[C@H]2C(=O)O[C@H](c3ccccc3)[C@H](c3ccccc3)N2[C@@H]1c1ccccc1OCCO | 0.963 |
| C[C@H]1C[C@@H]2[C@@H](C[C@@H]1C)N[C@@H]1C(=O)NC(=O)N[C@H]1N2C[C@H](O)[C@H](O)[C@H](O)CO | 0.953 |
| CC1=CC(C)(C)N(C(=O)/C=C/c2ccccc2)c2ccc(C)cc21 | 1.37 |
| Cc1cccc(N(C)C(=S)Oc2ccc3ccccc3c2)c1 | 1.16 |
| Cn1cnc(S(=O)(=O)N[C@H]2C=C[C@H](CC(=O)Nc3ccccc3)O[C@@H]2CO)c1 | 1.05 |
| COCCNCCn1cnc2c1c(=O)[nH]c(=O)n2C | 1.18 |
| Cl.Nc1c2c(nc3ccccc13)CCCC2 | 0.76 |
| CN1CCN(C(=O)C[C@@H]2C=C[C@@H](NS(=O)(=O)c3cccc(F)c3)[C@@H](CO)O2)CC1 | 0.984 |
| COc1ccc(-c2ccc3cc(C(=O)O)ccc3c2)cc1C12CC3CC(CC(C3)C1)C2 | 0.864 |
| CCN1CCCC1CNC(=O)c1cc(S(N)(=O)=O)ccc1OC (stereo not drawn) | 0.912 |
| c1cc(CNCCN2CCOCC2)ccn1 | 1.01 |
| O=C(NC(=O)N1CCOCC1)c1ccc(S(=O)(=O)N2CCOCC2)cc1 | 0.932 |
| CC[C@H]1CN(C)N1C(=O)[C@H]1CCCO1 | 0.959 |
| CC(C)[Si](C#C[Si](C(C)C)(C(C)C)C(C)C)(O[C@H](C)c1cn([C@H](C)c2ccccc2)nn1)C(C)C | 0.901 |
| CC(C)CC#Cc1ccc2c(c1)O[C@H](CN(C)S(=O)(=O)c1cccc(F)c1)[C@H](C)CN([C@H](C)CO)S2(=O)=O | 1.45 |
| O=C(CCC1CCCCC1)NCCC12CC3CC(CC(C3)C1)C2 | 1.12 |
| CC(C)=CCc1c(O)cc2oc(C)cc(=O)c2c1O | 0.832 |
| COCC(=O)Nc1ccc2c(c1)C(=O)N(C)C[C@H](OC)[C@H](C)CN(C(=O)Cc1cccnc1)[C@H](C)CO2 | 0.975 |
| COc1cccc(S(=O)(=O)N[C@H]2C=C[C@H](CC(=O)NC3CCC3)O[C@H]2CO)c1 | 1.02 |
| CCc1ccc(Nc2c3c(nc4ccccc24)CCCC3)cc1 | 0.521 |

| Compound | relative growth |
| --- | --- |
| CN1C(C(=O)Nc2ccccn2)=C(O)c2sc(Cl)cc2S1(=O)=O | 1.11 |
| NC1(CC(=O)O)CCN(Cc2ccccc2)CC1 | 0.945 |
| O=C(C[C@@H]1C=C[C@H](NS(=O)(=O)c2ccc(F)cc2)[C@H](CO)O1)NCCN1CCCCC1 | 0.945 |
| COc1ccc(-c2cc(=O)c3c(OC)c(OC)c(OC)c(OC)c3o2)cc1 | 1.25 |
| CC(=O)OCC1=C[C@@H]2OC(=O)C3=CO[C@@H](O[C@H]4O[C@H](CO)[C@@H](O)[C@H](O)[C@H]4O)[C@H]1[C@@H]32 | 1.12 |
| O=C(C[C@H]1CC[C@H]2[C@@H](COC[C@@H](O)CN2C(=O)c2ccncc2)O1)NC1CCC1 | 0.9 |
| CCCCNc1ccc(C(=O)OCCN(C)C)cc1.Cl | 0.807 |
| O=C(C[C@H]1CC[C@H]2[C@@H](COC[C@@H](O)CN2S(=O)(=O)c2ccccc2)O1)N1CCOCC1 | 0.993 |
| CN(C)CCCCNC(=O)[C@@H]1C[C@@H]2C(=O)N[C@@H](CCCCN(C)C)C(=O)N2[C@@H]1c1cccc(OCCO)c1 | 0.976 |
| CN1C[C@H](O)COC[C@H]2O[C@@H](CC(=O)N3CCN(c4ccccc4)CC3)CC[C@@H]21 | 1.12 |
| Oc1cc(O)c2cc(O)c(-c3ccc(O)c(O)c3)[o+]c2c1.[Cl-] | 0.927 |
| CS(C)(=O)=O | 1.08 |
| NC[C@H]1CCN(c2ccc(Oc3ccccc3)cc2)C1 | 0.978 |
| C#C[C@]1(O)CC[C@H]2[C@@H]3CCC4=Cc5oncc5C[C@]4(C)[C@H]3CC[C@@]21C | 1.12 |
| COC(=O)CCCCCCC(=O)NN | 0.965 |
| C[C@H](CO)N1C[C@H](C)[C@H](CN(C)C(=O)C2CCCCC2)Oc2cc(Br)ccc2S1(=O)=O | 0.86 |
| CC(C)=CCCC(C)[C@@H]1CC[C@]2(C)C3=C(CC[C@@]12C)C1(C)CC[C@H](O)C(C)(C)C1CC3 (stereo partly drawn) | 1.15 |
| O=C(C[C@@H]1C=C[C@H](NC(=O)Cc2ccccn2)[C@@H](CO)O1)NCCc1ccncc1 | 1.15 |
| COC(=O)C1=CO[C@@H](O[C@@H]2O[C@H](CO)[C@@H](O)[C@H](O)[C@H]2O)[C@H]2[C@@H]1[C@H](OC(C)=O)C[C@]2(C)OC(C)=O | 0.992 |
| O=C1CCC(=O)N1Nc1ccccn1 | 0.954 |
| COc1cc(OC)c(C(=O)CCCN2CCCC2)c(OC)c1.Cl | 0.957 |
| CCOC(=O)CC(=O)c1ccn(C)n1 | 0.917 |
